The values below come from PubChem BioAssay AID1851 (National Center for Advancing Translational Sciences (NCATS), 2009).

By UniProt entry, the sequences of proteins in these tests, tags left out.
UniProt P33261, whole entry, looked up: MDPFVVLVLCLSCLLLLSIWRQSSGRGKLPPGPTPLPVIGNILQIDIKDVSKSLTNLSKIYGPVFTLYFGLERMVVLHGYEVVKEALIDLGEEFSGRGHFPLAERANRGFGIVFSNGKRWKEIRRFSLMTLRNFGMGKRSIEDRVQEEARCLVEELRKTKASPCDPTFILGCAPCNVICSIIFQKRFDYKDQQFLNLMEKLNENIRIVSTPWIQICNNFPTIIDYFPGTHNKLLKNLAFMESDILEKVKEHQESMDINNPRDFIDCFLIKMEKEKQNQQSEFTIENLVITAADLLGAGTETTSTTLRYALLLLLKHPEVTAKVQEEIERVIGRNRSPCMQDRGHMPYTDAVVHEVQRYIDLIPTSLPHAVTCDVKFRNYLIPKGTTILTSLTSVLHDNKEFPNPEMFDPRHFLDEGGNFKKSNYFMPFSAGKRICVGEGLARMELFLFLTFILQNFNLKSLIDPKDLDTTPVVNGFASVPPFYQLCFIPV

Shown are results outside the selection of hits, which stands elsewhere. Inconclusive results are not listed. Active and inactive are the calls of the source. Calls follow the shape of the dose curve; as a rule, active = well fitted curve in the direction sought with a large enough effect; inconclusive = small, poorly fitted or top-dose-only effect, or effect the other way; inactive = no such curve, though single readings can be large or run the other way.
% is scaled to controls: 0 for no effect and ±100 for the full control effect.

The target of this assay is Cytochrome P450 2C19 (Homo sapiens) (UniProt P33261). Kind of assay: Cytochrome panel assay with activity outcomes. To be noted: recombinant CYP, pro-luciferin dealkylation, luminescence, p450-cyp2c19; at 57.1 µM (top of the series).
On to `CN1CC[C@@]2(CCCN(C(=O)c3csnn3)C2)C1`, for which the activity, negative = inhibition is inactive: -9.55%.
Next, `CN1CCCC2(CCN(C(=O)c3csnn3)CC2)C1`: inactive: 37.1%.
